Data published in article PMC6323793 (BMC Cancer, 2019).

Chains of the proteins cited; added tags and fusions are not shown. Lines headed by an entry give the natural chain unless they say otherwise; changes in a name come on top.
UniProt P30305: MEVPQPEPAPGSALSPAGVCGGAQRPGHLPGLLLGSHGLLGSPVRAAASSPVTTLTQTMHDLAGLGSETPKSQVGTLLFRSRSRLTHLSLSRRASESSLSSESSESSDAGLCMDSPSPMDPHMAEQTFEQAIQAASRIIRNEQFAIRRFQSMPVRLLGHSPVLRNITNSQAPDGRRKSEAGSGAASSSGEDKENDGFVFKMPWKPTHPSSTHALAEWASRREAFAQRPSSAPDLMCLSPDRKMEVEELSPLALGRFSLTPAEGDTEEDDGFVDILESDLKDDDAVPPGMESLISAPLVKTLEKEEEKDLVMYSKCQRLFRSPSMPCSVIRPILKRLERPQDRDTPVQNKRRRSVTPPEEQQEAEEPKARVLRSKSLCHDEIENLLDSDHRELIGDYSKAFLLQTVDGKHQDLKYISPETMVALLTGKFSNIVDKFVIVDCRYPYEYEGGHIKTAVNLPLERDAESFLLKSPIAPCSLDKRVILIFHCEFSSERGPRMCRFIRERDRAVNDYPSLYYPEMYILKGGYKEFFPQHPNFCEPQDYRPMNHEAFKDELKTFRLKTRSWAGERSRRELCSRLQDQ

Molecular target: Cdc25B (Homo sapiens, UniProt P30305)
Assay: Dialysis assay of the Cdc25B-shikonin complex (reversibility)
Settings: 0.2 μM Cdc25B, 50 μM shikonin, dialysis for 2, 4, 6 and 24 h

SMILES: CC(C)=CC[C@@H](O)C1=CC(=O)c2c(O)ccc(O)c2C1=O [Shikonin]
- Activity of Cdc25B after dialysis (reversibility of inhibition): not rescued
